Measured values taken from US20240325396A1, “METHODS FOR TREATING CANCER” (Allarity Therapeutics, Inc., priority 2023, published 2024).

The chains behind the UniProt entries cited, without tags or fusion partners. Where a name states a change or a piece, a line headed by the entry shows the natural chain unless it says otherwise.
UniProt O88554: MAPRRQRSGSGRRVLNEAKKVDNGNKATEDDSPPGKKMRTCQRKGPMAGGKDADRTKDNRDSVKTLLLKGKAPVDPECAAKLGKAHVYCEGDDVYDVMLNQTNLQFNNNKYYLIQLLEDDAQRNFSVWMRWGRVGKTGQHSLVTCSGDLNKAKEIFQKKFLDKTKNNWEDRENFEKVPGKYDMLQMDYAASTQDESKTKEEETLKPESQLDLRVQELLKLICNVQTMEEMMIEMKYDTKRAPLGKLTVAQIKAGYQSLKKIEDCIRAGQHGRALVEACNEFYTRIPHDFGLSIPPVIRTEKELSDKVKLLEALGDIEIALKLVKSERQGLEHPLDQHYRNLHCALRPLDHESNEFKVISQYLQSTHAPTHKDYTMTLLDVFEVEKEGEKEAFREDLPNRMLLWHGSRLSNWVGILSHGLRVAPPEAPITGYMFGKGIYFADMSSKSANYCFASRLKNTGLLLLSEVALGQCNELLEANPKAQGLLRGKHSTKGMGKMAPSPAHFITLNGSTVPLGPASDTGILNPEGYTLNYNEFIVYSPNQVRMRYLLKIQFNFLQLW

Target: mouse recombinant PARP2 (Mus musculus, UniProt O88554)
Conditions: read-out: IC50, PARP2 inhibition; cell-free assay in vitro

O=c1[nH]nc2c3c(cccc13)N=C(CN1Cc3ccccc3C1)N2 [stenoparib, 8-(isoindolin-2-ylmethyl)-2,9-dihydro-3H-pyridazino [3,4,5-de] quinazolin-3-one]
IC50: 1.2 nM
